Experimental findings from patent publication US20090196918A1, “Liposomal formulations of hydrophobic lactone drugs in the presence of metal ions” (University of Kentucky Research Foundation, priority 2008, published 2009) are described below.

Each structure is given as a SMILES string.

The data set can be described thus: Drug loading of DB-67 into liposomes by passive encapsulation. The conditions noted are these: liposomes prepared at pH 4 using 0.1 M hydroxypropyl-β-cyclodextrin and DB-67 lactone; same lipid concentration.

As to `CC[C@@]1(O)C(=O)OCc2c1cc1n(c2=O)Cc2c-1nc1ccc(O)cc1c2[Si](C)(C)C(C)(C)C` [DB-67, 7-t-butyldimethylsilyl-10-hydroxycamptothecin], the “DB-67 concentration of liposome suspension that could be prepared (loading)” value came to 0.8 mg/mL.
